Source: patent publication US7442841B2, “Extraction process” (Invista North America S.A R.L., priority 2006, dated 2008)

How the values were obtained:
[1] = Liquid-liquid separation of cyclohexanone from cyclohexane, distribution coefficient by gas chromatography; settings: extracting solvent/cyclohexane; equal volumes
[2] = Liquid-liquid separation of cyclohexanol from cyclohexane, distribution coefficient by gas chromatography; type: physicochemical; settings: extracting solvent/cyclohexane; equal volumes
Protocol: The distribution coefficient for the separation was then calculated.

CCCCn1cc[n+](C)c1 [Example 6]
Cyclohexanone Log D [1]: 0.64 | Cyclohexanol Log D [2]: 0.61

CCCCn1cc[n+](C)c1 [Example 3]
Cyclohexanone Log D [1]: 0.32 | Cyclohexanol Log D [2]: 0.24

CCCCn1cc[n+](C)c1 [Example 4]
Cyclohexanone Log D [1]: 0.18 | Cyclohexanol Log D [2]: 0.36
